B1: RAC-alpha serine/threonine-protein kinase (Homo sapiens), P31749 (parent)
chain: MSDVAIVKEGWLHKRGEYIKTWRPRYFLLKNDGTFIGYKERPQDVDQREAPLNNFSVAQCQLMKTERPRPNTFIIRCLQWTTVIERTFHVETPEEREEWTTAIQTVADGLKKQEEEEMDFRSGSPSDNSGAEEMEVSLAKPKHRVTMNEFEYLKLLGKGTFGKVILVKEKATGRYYAMKILKKEVIVAKDEVAHTLTENRVLQNSRHPFLTALKYSFQTHDRLCFVMEYANGGELFFHLSRERVFSEDRARFYGAEIVSALDYLHSEKNVVYRDLKLENLMLDKDGHIKITDFGLCKEGIKDGATMKTFCGTPEYLAPEVLEDNDYGRAVDWWGLGVVMYEMMCGRLPFYNQDHEKLFELILMEEIRFPRTLGPEAKSLLSGLLKKDPKQRLGGGSEDAKEIMQHRFFAGIVWQHVYEKKLSPPFKPQVTSETDTRYFDEEFTAQMITITPPDQDDSMECVDSERRPHFPQFSYSASGTA
partner: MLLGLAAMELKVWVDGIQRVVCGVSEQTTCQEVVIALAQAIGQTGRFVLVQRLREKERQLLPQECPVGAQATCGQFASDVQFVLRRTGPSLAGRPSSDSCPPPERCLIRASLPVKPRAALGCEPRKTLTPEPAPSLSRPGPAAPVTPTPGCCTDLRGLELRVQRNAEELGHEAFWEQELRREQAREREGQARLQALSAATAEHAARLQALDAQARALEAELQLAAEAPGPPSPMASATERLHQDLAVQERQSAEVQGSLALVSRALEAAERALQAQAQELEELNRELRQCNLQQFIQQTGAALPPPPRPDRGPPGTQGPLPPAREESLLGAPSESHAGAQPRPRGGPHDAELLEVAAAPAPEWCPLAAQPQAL
B2: RAC-alpha serine/threonine-protein kinase (Homo sapiens), P31749 (parent)
chain: B1 chain
partner: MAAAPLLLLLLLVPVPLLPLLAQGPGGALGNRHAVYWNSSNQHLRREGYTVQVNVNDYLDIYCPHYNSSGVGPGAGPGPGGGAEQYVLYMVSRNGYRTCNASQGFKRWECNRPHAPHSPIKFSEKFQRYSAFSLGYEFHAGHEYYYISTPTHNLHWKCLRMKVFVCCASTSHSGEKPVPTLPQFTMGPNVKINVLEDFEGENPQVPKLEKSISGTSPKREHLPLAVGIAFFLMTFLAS
B3: RAC-alpha serine/threonine-protein kinase (Homo sapiens), P31749 (parent)
chain: B1 chain
partner: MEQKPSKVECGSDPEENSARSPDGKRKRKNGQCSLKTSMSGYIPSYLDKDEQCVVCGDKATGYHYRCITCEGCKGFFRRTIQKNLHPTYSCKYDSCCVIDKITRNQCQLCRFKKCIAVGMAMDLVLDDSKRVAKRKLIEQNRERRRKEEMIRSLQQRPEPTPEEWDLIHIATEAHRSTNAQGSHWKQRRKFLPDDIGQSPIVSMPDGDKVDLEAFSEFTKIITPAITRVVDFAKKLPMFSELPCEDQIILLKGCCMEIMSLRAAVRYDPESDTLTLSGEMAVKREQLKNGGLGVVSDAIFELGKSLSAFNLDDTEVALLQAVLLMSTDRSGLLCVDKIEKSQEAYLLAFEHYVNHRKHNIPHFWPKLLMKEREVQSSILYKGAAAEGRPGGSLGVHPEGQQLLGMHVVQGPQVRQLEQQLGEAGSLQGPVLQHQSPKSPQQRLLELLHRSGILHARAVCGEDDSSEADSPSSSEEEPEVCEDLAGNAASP
B4: RAC-alpha serine/threonine-protein kinase (Homo sapiens), P31749 (parent)
chain: B1 chain
partner: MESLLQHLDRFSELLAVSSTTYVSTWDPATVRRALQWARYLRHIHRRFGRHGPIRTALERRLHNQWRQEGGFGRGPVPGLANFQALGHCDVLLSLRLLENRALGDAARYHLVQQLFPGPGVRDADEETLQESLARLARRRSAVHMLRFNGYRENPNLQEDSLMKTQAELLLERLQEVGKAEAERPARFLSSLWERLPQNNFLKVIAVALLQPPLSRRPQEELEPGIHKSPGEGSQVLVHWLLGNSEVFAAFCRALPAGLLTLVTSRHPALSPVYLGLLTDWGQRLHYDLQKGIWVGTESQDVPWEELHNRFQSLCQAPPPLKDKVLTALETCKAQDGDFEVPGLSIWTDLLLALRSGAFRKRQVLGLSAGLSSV
B5: RAC-alpha serine/threonine-protein kinase (Homo sapiens), P31749 (parent)
chain: B1 chain
partner: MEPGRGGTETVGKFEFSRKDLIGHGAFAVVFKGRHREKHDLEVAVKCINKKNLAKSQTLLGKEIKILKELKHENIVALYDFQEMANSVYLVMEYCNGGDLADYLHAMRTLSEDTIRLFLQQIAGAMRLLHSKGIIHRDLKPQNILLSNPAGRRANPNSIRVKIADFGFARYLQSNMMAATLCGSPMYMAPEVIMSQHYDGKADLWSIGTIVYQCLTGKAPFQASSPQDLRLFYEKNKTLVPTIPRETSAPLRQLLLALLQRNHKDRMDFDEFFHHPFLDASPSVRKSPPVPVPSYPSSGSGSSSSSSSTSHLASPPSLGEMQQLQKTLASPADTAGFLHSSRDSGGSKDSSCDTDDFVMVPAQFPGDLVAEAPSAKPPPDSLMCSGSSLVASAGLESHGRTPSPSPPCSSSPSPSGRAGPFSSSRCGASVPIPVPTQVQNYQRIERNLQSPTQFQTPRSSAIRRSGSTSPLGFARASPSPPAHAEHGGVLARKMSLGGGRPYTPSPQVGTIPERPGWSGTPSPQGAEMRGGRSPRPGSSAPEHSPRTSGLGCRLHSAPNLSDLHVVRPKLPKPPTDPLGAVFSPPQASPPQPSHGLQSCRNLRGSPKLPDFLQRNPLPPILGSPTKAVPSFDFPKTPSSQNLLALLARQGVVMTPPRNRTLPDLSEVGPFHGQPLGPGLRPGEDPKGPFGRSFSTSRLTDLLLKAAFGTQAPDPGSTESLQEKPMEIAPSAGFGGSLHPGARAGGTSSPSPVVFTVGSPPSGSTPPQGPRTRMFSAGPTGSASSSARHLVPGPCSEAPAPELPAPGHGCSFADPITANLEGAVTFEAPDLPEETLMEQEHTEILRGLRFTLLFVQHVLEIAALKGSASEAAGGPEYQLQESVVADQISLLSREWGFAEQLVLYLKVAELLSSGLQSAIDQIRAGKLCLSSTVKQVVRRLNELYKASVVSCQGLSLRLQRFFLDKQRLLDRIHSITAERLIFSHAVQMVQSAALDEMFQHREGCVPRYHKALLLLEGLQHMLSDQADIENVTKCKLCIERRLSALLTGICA
B6: RAC-alpha serine/threonine-protein kinase (Homo sapiens), P31749 (parent)
chain: B1 chain
partner: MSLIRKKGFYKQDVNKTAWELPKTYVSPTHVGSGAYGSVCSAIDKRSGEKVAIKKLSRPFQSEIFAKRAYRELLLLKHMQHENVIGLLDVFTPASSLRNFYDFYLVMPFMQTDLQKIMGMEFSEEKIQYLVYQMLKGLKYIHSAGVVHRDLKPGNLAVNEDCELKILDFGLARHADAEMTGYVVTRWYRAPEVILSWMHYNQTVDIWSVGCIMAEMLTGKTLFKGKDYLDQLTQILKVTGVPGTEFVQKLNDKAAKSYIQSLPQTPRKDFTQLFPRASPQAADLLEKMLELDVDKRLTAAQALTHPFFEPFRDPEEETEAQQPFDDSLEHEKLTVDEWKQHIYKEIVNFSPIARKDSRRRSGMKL

Variants of: B1
Settings: with rasf7_human RASSF7, Q02833

effect of a mutation on the interaction | Variant
causing an interaction | E17K

Variants of: B2
Settings: with efna3_human EFNA3, P52797

effect of a mutation on the interaction | Variant
causing an interaction | E17K

Variants of: B3
Settings: with tha_human THRA

effect of a mutation on the interaction | Variant
causing an interaction | E17K

Variants of: B3
Settings: with tha_human THRA
Remark: another data set of the same source

effect of a mutation on the interaction | Variant
increasing interaction strength | E17K

Variants of: B4
Settings: with fancf_human FANCF

effect of a mutation on the interaction | Variant
causing an interaction | E17K

Variants of: B5
Settings: with ulk1_human ULK1, O75385

effect of a mutation on the interaction | Variant
causing an interaction | E17K

Variants of: B6
Settings: with mk13_human MAPK13, O15264

effect of a mutation on the interaction | Variant
causing an interaction | E17K

Variants of: B6
Settings: with mk13_human MAPK13, O15264
Remark: another data set of the same source

effect of a mutation on the interaction | Variant
increasing interaction strength | E17K
